The data set is described as follows: Determination of the Maximum Tolerated Dose (MTD), acute toxicity after a single IP injection. The format is in vivo, male OF1 mice. On the set-up: key: per mouse 0 = absent, 1 = present per sign; summed over group. The conditions noted are these: group sum. Here is the method: Drugs were dissolved in a mixture of dimethylacetamide (Sigma) and oleic macrogolglycerides (Labrafil® M1944Cs, Gattefossé) (10:90%, vol/vol).
Initially, the Maximum Tolerated Dose (MTD) after intraperitoneal (IP) administration was determinated.
For MTD determination, study was conducted on male OF1 mice weighing about 30 g, 6-weeks old (Charles River, France). Groups of five to six mice received a single IP injection of each drug at variable doses according to the compound (see Tables 2, 3 and 4).
Individual dose were based on the body weight of each mouse. All the mice received a constant injection volume of 250 µL per 25 g of body weight. A group of seven control mice received the vehicle.
After IP injection, mice were weighed and observed every two days over a 2 week-period to evaluate general clinical state. For each animal, a clinical state score (CSS) was calculated based on the absence (value 0) or presence (value 1) of diarrhoea, lethargy, rough coat and closed eyes. CSS was then calculated per group by summing individual scores. Loss of weight and mortality were also recorded.

Structures are written as SMILES.

Consider `O=C(O)CCCc1ccc(N(CCCl)CCCl)cc1` [chlorambucil, reference compound], for which, for the setting “single IP 0.0175 mmol/kg”, the “Clinical State Score (CSS) diarrhoea” value is reported as 1, the “Clinical State Score (CSS) lethargy” value stood at 0 and the “Clinical State Score (CSS) total” value is 1. Where the note is “single IP 0.035 mmol/kg”, the “Clinical State Score (CSS) lethargy” value was 0, the “Clinical State Score (CSS) rough coat” value stood at 0 and the “Clinical State Score (CSS) total” value worked out at 2. For the same compound, for the setting “single IP 0.05 mmol/kg”, the “Clinical State Score (CSS) closed eyes” value came out at 0, the “Clinical State Score (CSS) diarrhoea” value is 2, the “Clinical State Score (CSS) lethargy” value turned out to be 0 and the “Clinical State Score (CSS) total” value was found to be 2. Moreover, where the note is “single IP 0.07 mmol/kg”, the “Clinical State Score (CSS) diarrhoea” value is given as 2, the “Clinical State Score (CSS) rough coat” value is 5 and the “Clinical State Score (CSS) total” value turned out to be 7. Under “single IP 0.09 mmol/kg”, the “Clinical State Score (CSS) diarrhoea” value is given as 4, the “Clinical State Score (CSS) rough coat” value is 4 and the “Clinical State Score (CSS) total” value is 8.
